According to patent US10309966B2, “Personalized therapy of inflammation-associated cancer using methods of assessing the susceptibility of a subject to the treatment with EGFR inhibitors/antagonists” (Medizinische Universität Wien, priority 2014, dated 2019):

Experiments:
[1] = system: IL-6 secretion by isolated Kupffer cells; assay: IL-1β-induced IL-6 production/secretion by isolated Kupffer cells (ELISA, qRT-PCR); format: cell-based, mouse; details: preincubation with increasing amounts of inhibitor (BIBW2992 0.005-20 μM, cetuximab 0.01-1 μg/ml); IL-1β 10 ng/ml; FIGS. 9A, 9B
Procedure: ELISA for IL-6, IL17A, IL22, IL23 (eBioscience), amphiregulin (R&D Systems), CCL2, IL-1β and IL-1α (BD Biosciences-Pharmigen) were performed following the manufacturer's instructions. MTT assay (EZ4U, Biomedica) was performed to quantify the number of viable Kupffer cells in the wells. The cytokine value was normalized to the number of viable Kupffer cells.
Hepatocytes were plated onto collagen pre-coated cell culture dishes and cultured in HepatoZyme-SFM (Gibco) supplemented with 2 mM glutamine and 1% penicillin-streptomycin (P/S). Hepatocytes were either treated with the indicated amounts of DEN for 24 hours or with 10 ng/ml TNFα (eBioscience) in the presence of cycloheximide (100 μg/ml, Sigma) for 12 hours to study the hepatoprotective role of EGFR. […] Since the number of Kupffer cells which can be recovered from one mouse is very low, it was technically impossible to perform Western Blot analysis for all indicated signaling molecules on one single batch of Kupffer cells. Usually Kupffer cells from 2 livers of the same genotype were pooled together to obtain around 20-30 μg of protein lysate.

[2] = system: advanced stage HCC patients; details: cited from earlier work

Which “IL-6 production in Kupffer cells (IL-1β-induced IL-6 secretion)” value [1] does the source give for cetuximab: EGFR-inhibiting antibody here?
Its value is “prevented”.

What about the “clinical results in advanced stage HCC patients” value [2] of the same substance?
The value was “disappointing clinical results”.
